Earlier results in paper PMC3776131 (Bioorganic & medicinal chemistry letters, 2013).

Protein sequences, listed by entry. Tags and fused reporters are not part of them. Lines headed by an entry give the natural chain unless they say otherwise; changes in a name come on top.
UniProt P32300, whole entry: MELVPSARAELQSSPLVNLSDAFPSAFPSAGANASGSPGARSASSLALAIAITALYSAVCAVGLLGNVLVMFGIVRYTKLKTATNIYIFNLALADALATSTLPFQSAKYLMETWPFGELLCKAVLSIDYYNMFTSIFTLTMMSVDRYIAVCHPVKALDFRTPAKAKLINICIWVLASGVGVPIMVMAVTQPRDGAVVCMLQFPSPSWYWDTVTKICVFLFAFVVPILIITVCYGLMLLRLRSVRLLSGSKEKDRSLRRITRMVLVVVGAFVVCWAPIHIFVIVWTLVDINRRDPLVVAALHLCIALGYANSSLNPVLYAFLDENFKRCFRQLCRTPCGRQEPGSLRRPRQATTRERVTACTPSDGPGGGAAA

Biological target: δ receptor (Mus musculus, UniProt P32300)
Conditions: cited from earlier work

H-Dmt-Tic-OH [Compound 8a]
MVD Ke (δ antagonist activity): 6.55 ± 0.27 nM
